Like-named read-outs stand apart in the source and are kept apart here.
What was measured:
[1] = target: truncated human beta-secretase (residues 1-458, His6-tagged at the C-terminus) (Homo sapiens (Human), UniProt P56817); experiment: BACE enzyme assay (fluorescence quench assay, Example 434A); type: biochemical
[2] = target: H4 neuroglioma cell line stably expressing APP with the KM-NL Swedish mutation (H4-APPsw); soluble Amyloid Beta 1-40 (Aβ 1-40) (Homo sapiens (Human), UniProt P56817); experiment: BACE cell assay: soluble Aβ 1-40 in culture media of H4-APPsw cells (AlphaLISA/ELISA); type: cell-based; conditions: in vitro cell activity; H4-APPsw cells treated overnight, secreted Aβ 1-40 in culture media
[3] = footnote a: protocols described in Example 434A, read-out: IC50

| SMILES | IC50 [1, 3] | IC50 [1] | also measured |
| --- | --- | --- | --- |
| CN1OC2(N=C1N)c1cc(-c3cccc(C#N)c3)ccc1CC21CCc2cc(F)c(F)cc2C1 (stereo not shown) [Compound 33] | 0.089 µM | – | – |
| COC1CCC2(CC1)Cc1ccc(-c3ccc(F)c(C#N)c3)cc1C21N=C(N)N(C)O1 (stereo not shown) [Compound 12] | – | – | IC50 ([1]; read-out: IC50): 0.0079 µM; IC50 [2]: < 0.1 µM |
| COc1cc(Cl)cc(-c2ccc3c(c2)C2(N=C(N)N(C)O2)C2(CCc4ccccc4CC2)C3)c1 (stereo not shown) [Compound 27] | – | – | IC50 ([1]; read-out: IC50): 0.0383 µM; IC50 [2]: < 10 µM |
| CN1OC2(N=C1N)c1cc(-c3ccc(F)c(Cl)c3)ccc1CC21CCc2ccccc2CC1 (stereo not shown) [Compound 23] | – | – | IC50 ([1]; read-out: IC50): 0.0207 µM; IC50 [2]: < 5 µM |
| CN1OC2(N=C1N)c1cc(-c3cc(F)cc(Cl)c3)ccc1CC21CCc2ccccc2CC1 (stereo not shown) [Compound 15] | – | – | IC50 ([1]; read-out: IC50): 0.0112 µM; IC50 [2]: < 5 µM |
| COC1CCC2(CC1)Cc1ccc(C3CC3)cc1C21N=C(N)N(C)C1=O (stereo not shown) [Compound 191] | – | 0.102 µM | – |
| COC1CCC2(CC1)Cc1ccc(-c3cccc(C#N)c3)cc1C21N=C(N)N(C2CC2)C1=O (stereo not shown) [Compound 227] | 0.012 µM | – | – |
| CN1OC2(N=C1N)c1cc(-c3cc(Cl)cc(Cl)c3)ccc1CC21CCc2ccccc2CC1 (stereo not shown) [Compound 21] | – | – | IC50 ([1]; read-out: IC50): 0.0189 µM; IC50 [2]: < 5 µM |
| COC1CCC2(CC1)Cc1ccc(-c3cccc(C#N)c3)cc1C21N=C(N)N(C(C)C)C1=O (stereo not shown) [Compound 154] | 0.0301 µM | – | – |
| COC1CCC2(CC1)Cc1ccc(-c3ccc(F)c(Cl)c3)cc1C21N=C(N)N(C)C1=O (stereo not shown) [Compound 178] | – | 0.0006 µM | – |
| COC1CCC2(CC1)Cc1ccc(C#CC3CC3)cc1C21N=C(N)N(C2CC2)C1=O (stereo not shown) [Compound 225] | – | 0.02 µM | – |
| COC1CCC2(CC1)Cc1ccc(-c3cnccn3)cc1C21N=C(N)N(C)C1=O (stereo not shown) [Compound 197] | – | 0.0296 µM | – |
| COC1CCC2(CC1)Cc1ccc(-c3cc(F)cc(C#N)c3)cc1C21N=C(N)N(C)C1=O (stereo not shown) [Compound 192] | – | 0.00096 µM | – |
| CCN1C(=O)C2(N=C1N)c1cc(-c3cccc(Cl)c3)ccc1CC21CCC(OC)CC1 (stereo not shown) [Compound 136] | – | 0.0081 µM | – |
| Cc1onc2c1CC1(CC2)Cc2ccc(-c3cccnc3)cc2C12N=C(N)N(C)C2=O (stereo not shown) [Compound 464] | 0.0079 µM | – | – |
| CN1OC2(N=C1N)c1cc(-c3cccc(Cl)c3)ccc1CC21CCc2ccccc2CC1 (stereo not shown) [Compound 17] | – | – | IC50 ([1]; read-out: IC50): 0.0121 µM; IC50 [2]: < 1 µM |
| COC1CCC2(CC1)Cc1ccc(-c3cncc(Cl)c3)cc1C21N=C(N)N(C)C1=O (stereo not shown) [Compound 187] | – | 0.0026 µM | – |
| CN1OC2(N=C1N)c1cc(-c3cccc(C#N)c3)ccc1CC21CCc2ccccc2CC1 (stereo not shown) [Compound 22] | – | – | IC50 ([1]; read-out: IC50): 0.0193 µM; IC50 [2]: < 5 µM |
| COC1CCC2(CC1)Cc1ccc(-c3cccc(OC(F)(F)F)c3)cc1C21N=C(N)N(C)O1 (stereo not shown) [Compound 9] | 0.007 µM | – | IC50 [2]: < 0.5 µM |
| COC1CCC2(CC1)Cc1ccc(-c3cc(Cl)cc(C#N)c3)cc1C21N=C(N)N(C)C1=O (stereo not shown) [Compound 193] | – | 0.0008 µM | – |
| COC1CCC2(CCc3ccc(-c4cccc(C#N)c4)cc3C23N=C(N)N(C)O3)CC1 (stereo not shown) [Compound 52] | – | – | IC50 ([1]; read-out: IC50): 0.506 µM; IC50 [2]: < 5 µM |
| COC1CCC2(CC1)Cc1ccc(C#N)cc1C21N=C(N)N(C)C1=O (stereo not shown) [Compound 214] | 0.0309 µM | – | – |
| CN1OC2(N=C1N)c1cc(C3CC3)ccc1CC21CCc2ccccc2CC1 (stereo not shown) [Compound 454] | 0.128 µM | – | – |
| COC1CCC2(CC1)Cc1ccc(C#Cc3ccsc3)cc1C21N=C(N)N(C)C1=O (stereo not shown) [Compound 194] | – | 0.0174 µM | – |

| SMILES | IC50 [1, 3] | IC50 [1] | also measured |
| --- | --- | --- | --- |
| COC1CCC2(CC1)Cc1ccc(-c3cncc(F)c3)cc1C21N=C(N)N(C)C1=O (stereo not shown) [Compound 188] | – | 0.0019 µM | – |
| COC1CCC2(CC1)Cc1ccc(-c3ccc(F)c(Cl)c3)cc1C21N=C(N)N(C)O1 (stereo not shown) [Compound 13] | – | – | IC50 ([1]; read-out: IC50): 0.0088 µM; IC50 [2]: < 0.5 µM |
| COC1CCC2(CC1)Cc1ccc(-c3cccnc3)cc1C21N=C(N)N(C)C1=O (stereo not shown) [Compound 184] | – | 0.0033 µM | – |
| CN1C(=O)C2(N=C1N)c1cc(-c3cccnc3)ccc1CC21CCc2ccccc2CC1 (stereo not shown) [Compound 394] | 0.0014 µM | – | – |
| CO[C@H]1CC[C@@]2(CC1)Cc1ccc(Br)cc1C21CC(=O)N(C)C(N)=N1 (stereo partly shown) [Compound 66] | 200 µM | – | – |
| COC1CCC2(CC1)Cc1ccc(-c3cc(F)cc(F)c3)cc1C21N=C(N)N(C)C1=O (stereo not shown) [Compound 183] | – | 0.001 µM | – |
| COC1CCC2(CC1)Cc1ccc(Br)cc1C21N=C(N)N(C2CC2)C1=O (stereo not shown) [Compound 226] | – | 0.351 µM | – |
| Cc1onc2c1CC1(CC2)Cc2ccc(-c3cccc(C#N)c3)cc2C12N=C(N)N(C)C2=O (stereo not shown) [Compound 462] | – | 0.0014 µM | – |
| COC1CCC2(CC1)Cc1ccc(-c3cncc(C(F)(F)F)c3)cc1C21N=C(N)N(C(C)C)C1=O (stereo not shown) [Compound 155] | 0.0122 µM | – | – |
| CN1OC2(N=C1N)c1cc(-c3cccc(C#N)c3)ccc1CC21CCCCC1 (stereo not shown) [Compound 94] | – | – | IC50 ([1]; read-out: IC50): 0.222 µM |
| COC1CCC2(CC1)Cc1ccc(-c3cccnc3F)cc1C21N=C(N)N(C)C1=O (stereo not shown) [Compound 189] | – | 0.0029 µM | – |
| COC1CCC2(CC1)Cc1ccc(-c3ccc(F)c(C#N)c3)cc1C21N=C(N)N(C)C1=O (stereo not shown) [Compound 179] | – | 0.0026 µM | – |
| COC1CCC2(CC1)Cc1ccc(-c3cncc(C(F)(F)F)c3)cc1C21N=C(N)N(C)C1=O (stereo not shown) [Compound 185] | – | 0.0028 µM | – |
| Cc1onc2c1CC1(CC2)Cc2ccc(-c3cncc(Cl)c3)cc2C12N=C(N)N(C)C2=O (stereo not shown) [Compound 466] | 0.0132 µM | – | – |
| Cc1onc2c1CC1(CC2)Cc2ccc(-c3cncc(Cl)c3)cc2C12N=C(N)N(C)O2 (stereo not shown) [Compound 452] | – | – | IC50 ([1]; read-out: IC50): 0.007 µM |
| COC1CCC2(CC1)Cc1ccc(C#CC3(O)CCCC3)cc1C21N=C(N)N(C)C1=O (stereo not shown) [Compound 195] | – | 0.0497 µM | – |
| CO[C@H]1CC[C@]2(CC1)Cc1ccccc1C21N=C(N)N(C)C1=O (stereo partly shown) [Compound 218] | – | 0.161 µM | – |
| CN1OC2(N=C1N)c1cc(-c3cc(Cl)cc(C#N)c3)ccc1CC21CCc2ccccc2CC1 (stereo not shown) [Compound 10] | – | – | IC50 ([1]; read-out: IC50): 0.0074 µM; IC50 [2]: < 5 µM |
| CN1OC2(N=C1N)c1cc(-c3cc(F)cc(Cl)c3)ccc1OC21CCc2ccccc2CC1 (stereo not shown) [Compound 102] | 0.0147 µM | – | – |
| COC1CCC2(CC1)Cc1ccc(-c3cccc(Cl)c3)cc1C21N=C(N)N(C)O1 (stereo not shown) [Compound 5] | 0.0045 µM | – | IC50 [2]: < 0.5 µM |
| COC1CCC2(CC1)Cc1ccc(-c3cccnc3)cc1C21N=C(N)N(Cc2ccccc2)C1=O (stereo not shown) [Compound 139] | 0.0136 µM | – | – |
| CN1OC2(N=C1N)c1cc(-c3cccc(OC(F)(F)F)c3)ccc1CC21CCc2ccccc2CC1 (stereo not shown) [Compound 38] | – | – | IC50 ([1]; read-out: IC50): 0.13 µM; IC50 [2]: < 50 µM |
| CCN1C(=O)C2(N=C1N)c1cc(-c3cccc(C#N)c3)ccc1CC21CCC(OC)CC1 (stereo not shown) [Compound 135] | 0.0073 µM | – | – |
| COC1CCC2(CC1)Cc1ccc(-c3cccc(Cl)c3)cc1C21N=C(N)N(C(C)C)C1=O (stereo not shown) [Compound 153] | – | 0.0366 µM | – |

Source: patent US8633212B2, “Inhibitors of beta-secretase” (Vitae Pharmaceuticals, Inc., priority 2009, dated 2014)
